Earlier results as cited in US5070074A, “Hypoglycemic and growth-promoting polypeptides isolated from bacitracin” (Protor Co., priority 1990, dated 1991).

Details: destruction by protease insulinase; cited from earlier work

**Q.** With insulin as the substance, how does the “t1/2 of destruction of insulin after injection” value read?
**A.** The value was “approximately 40 minutes”.
